Only a part is listed here, and it is no random draw. Some of these compounds have results that are not shown, active ones among them. Calls of active or inactive are those of the source.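 Rule for the calls: active = activation of at least 50%, plus an integration ratio under a set limit after plate pattern correction; inactive = the rest.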

The subject of this assay is CRF-binding protein / CRF receptor 2 complex (human). Description: agonists of CRF-BP/CRF-R2 complex, primary screen, cell-based, HEK293, calcium dye fluorescence, uHTS (AID 588473).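 Note: plate controls were neutral control wells without compound for no effect and CRF at EC100 for full effect.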 Particulars: calcium dye fluorescence (FLIPR), at 13.2 µM, hits give high values, percent of saturating CRF peptide response.
`C=C(C)C#CC(O)(C(=O)OC1CCN(C)CC1)c1ccccc1` (stereo unspecified): the activation was inactive: 3.68%.

For the compound `COc1ccc(Br)c(C(=O)NCC2(N3CCCCC3)CCCCC2)c1`, the activation was inactive: 1.15%.

In the case of `O=C(OCCN1CCCC1)C(O)(c1ccccc1)c1ccccc1`, the activation was inactive: -2.16%.

Turning to `CC(C)Oc1ccc(C(=O)NCC2(N(C)C)CCCCC2)cc1`, the activation is inactive: -0.02%.

For `CN(C)c1cccc(C(=O)NCC2(N(C)C)CCCCC2)c1`, the activation is inactive: 0.54%.

Regarding `O=C(OC1CN2CCC1CC2)C(CO)(c1ccccc1)c1ccccc1` (stereo unspecified), the activation was inactive: -0.61%.

In the case of `COc1ccc(Cl)cc1C(=O)NCC1(N(C)C)CCCCC1`, the activation was inactive: 1.23%.

Take `COc1cccc(C(=O)NCC2(N3CCCCC3)CCCCC2)c1`: the activation is inactive: -2.3%.

Turning to `O=C(NCC1(N2CCCCC2)CCCCC1)c1cccc(Cl)c1`, the activation was inactive: 3.82%.

Take `CN(C)C1(CNC(=O)c2ccc(Br)cc2)CCCCC1`: the activation is inactive: 0.58%.

`COc1cc(C(=O)NCC2(N(C)C)CCCCC2)c([N+](=O)[O-])cc1OC`: the activation was inactive: 0.96%.

`O=C(NCC1(N2CCCCC2)CCCCC1)c1cc(F)c(F)cc1Cl`: the activation was inactive: -1.6%.

On to `C=CCN1CCN(CCOC(=O)C(O)(c2ccccc2)c2ccccc2)CC1`, for which the activation is inactive: -2.98%.

In the case of `COc1ccc(C(=O)NCC2(N(C)C)CCCCC2)cc1`, the activation is inactive: 0.64%.

`O=C(NCC1(N2CCCCC2)CCCCC1)c1cccc(Br)c1`: the activation is inactive: -0.26%.

Regarding `Cc1cc(C(=O)NCC2(N3CCCCC3)CCCCC2)ccc1[N+](=O)[O-]`, the activation was inactive: 0.11%.

As to `CCN1CCCC(OC(=O)C2(O)c3ccccc3C=Cc3ccccc32)C1` (stereo unspecified), the activation was inactive: 1.34%.

Regarding `CN(C)C1CCCC1OC(=O)C(O)(c1ccccc1)c1ccccc1` (stereo unspecified), the activation is inactive: 0.65%.

For the compound `CN(C)c1ccc(C(=O)NCC2(N(C)C)CCCCC2)cc1`, the activation is inactive: -2.18%.

Take `Cc1ccccc1C(=O)NCC1(N2CCCCC2)CCCCC1`: the activation is inactive: 0.68%.

Take `COc1cc(SC)ccc1C(=O)NCC1(N(C)C)CCCCC1`: the activation was inactive: 0.16%.

Regarding `CCN(CC)CC(C)C(C)OC(=O)C(O)(c1ccccc1)c1ccccc1` (stereo unspecified), the activation was inactive: 0.81%.

On to `CC(C)N1C(=O)CC2(CCN(CCOC(=O)C(O)(c3ccccc3)c3ccccc3)CC2)C1=O`, for which the activation is inactive: 0.07%.

Consider `Cc1ccc(C(=O)NCC2(N3CCCCC3)CCCCC2)cc1`, for which the activation was inactive: 1.2%.

As for `O=C(NCC1(N2CCCCC2)CCCCC1)c1cc([N+](=O)[O-])ccc1Cl`, the activation was inactive: 2.54%.

Consider `CN1[C@@H]2CC[C@H]1CC(OC(=O)C(O)(c1ccccc1)c1ccccc1)C2` (stereo partly specified), for which the activation was inactive: -2.02%.
